According to PMC2978023 (Journal of immunology (Baltimore, Md. : 1950), 2008):

What was measured:
[1] = test system: human PMNs; details: 16 h, 100 μM
[2] = molecular target: recombinant purified β2 subunit (Homo sapiens, UniProt P05107); assay: Solid-phase binding to purified β2 subunit
Summary of the method: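 Purified recombinant αMβ2, αM or β2 (from HEK293 lines) was coated overnight at 4°C in TBS with 10 mM n-octyl-β-D-glucopyranoside and postcoated with 0.5% PVP for 1 h at 37°C. Biotinylated Plg or Ang(1–4) (0–10 μM) was bound for 2 h at 37°C in the same buffer plus 1 mM CaCl₂/MgCl₂. Binding was detected with alkaline phosphatase–avidin and pNPP at A405. Kd came from a one-site binding fit.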

Compound: CC(C)C[C@H](NC(=O)[C@H](CCCNC(=N)N)NC(=O)[C@H](CCCCN)NC(=O)[C@H](CCC(N)=O)NC(=O)[C@H](Cc1ccccc1)NC(=O)[C@@H](NC(=O)[C@@H](NC(=O)[C@H](Cc1c[nH]c2ccccc12)NC(=O)CN)[C@@H](C)O)C(C)C)C(=O)N[C@@H](CC(=O)O)C(=O)NCC(=O)N[C@@H](CO)C(=O)N[C@H](C(=O)O)C(C)C [P1]
- PMN early/late apoptosis (% annexin V+ cells), no inhibitor [1]: 56.1 ± 13%
- Kd [2]: > 100 µM
